Experimental data from patent publication EP1588698A2, “A process for the production and screening of materials for use in pharmaceutical aerosol formulations” (Thompson, James Anthony, priority 2004, dated 2005).

Test: Screening of salt derivative solubility in ethanol co-solvent
Format: physicochemical
Details: ethanol reaction solution
Source text: Solubility, of a drug salt derivative, to an appreciable extent, in solvents miscible with the propellant(s) provides a simple yet robust screening method.
The co-solvent used to screen derivative solubility and formulation approach was ethanol. […] A comprehensive list can be taken from texts such as the handbook of pharmaceutical excipients. Ethanol and water mixtures may be utilised. For solution aerosols a single phase is required when in the final formulation, but equally a suspension or emulsion may results and be utilised. As the model bronchodilator was a basic compound acids requisite for salt formation (from pKa values) were selected. […] The solvent necessary to facilitate dissolution is assumed to be of sufficient dielectric constant and an ideal solvent, although skilled practitioners will endeavor to try a range of solvents as formulation science is empirical. Other examples of suitable acids are acetate, benzenesulphonate, mesylate etc, and can be sought from any suitable text: Martindale 2005. […] Preferentially precipitated or solvated species may result from careful selection of reagents and forms of the active described. Preferentially precipitated or solvated compounds can be isolated either in bulk or in-situ for use.
Two non-limiting examples of use of the manufacture/ screening method are described below.

salbutamol sulphate [reference compound]
behaviour of the salt in ethanol solution (stable or precipitates): precipitated almost instantaneously
